Laboratory results reported in paper PMC11310081, “Deep-learning-enabled antibiotic discovery through molecular de-extinction” (Nature Biomedical Engineering, 2024).

Legend:
[1] = test system: 11 clinically relevant bacterial pathogens; format: cell-based
Source text: (§1) The following Gram-negative bacteria were used in our study: A. baumannii ATCC 19606, E. coli ATCC 11775, E. coli AIC221 (E. coli MG1655 phnE_2::FRT), E. coli AIC222 (E. coli MG1655 pmrA53 phnE_2::FRT (colistin resistant)), K. pneumoniae ATCC 13883, P. aeruginosa PAO1 and P. aeruginosa PA14. The following Gram-positive bacteria were also used in our study: S. aureus ATCC 12600, S. aureus ATCC BAA-1556 (methicillin-resistant strain), E. faecalis ATCC 700802 (vancomycin-resistant strain) and E. faecium ATCC 700221 (vancomycin-resistant strain). Bacteria were grown from frozen stocks and plated on Luria–Bertani (LB) or Pseudomonas isolation agar plates (P. aeruginosa strains) and incubated overnight at 37 °C. After the incubation period, a single colony was transferred to 5 ml of LB medium, and cultures were incubated overnight (16 h) at 37 °C. The following day, an inoculum was prepared by diluting the overnight cultures 1:100 in 5 ml of the respective media and incubating them at 37 °C until bacteria reached logarithmic phase (OD600 = 0.3–0.5).
(§2) The in vitro antimicrobial activity of the peptides was assessed by using the broth microdilution assay. […] Aqueous solutions of the peptides were added to the plate at concentrations ranging from 1 to 64 μmol l^−1. […] The optical density of the plates was measured at 600 nm using a spectrophotometer. All assays were done as three biological replicates.

E. coli AIC221 = format: cell-based, Escherichia coli; settings: AIC221, 20 h
Source text: as §1
as §2, with “All assays were done as three biological replicates.” left out

HEK293T cells = settings: 24 h
Procedure: HEK293T cells were obtained from the American Type Culture Collection (CRL-3216). The cells were cultured in high-glucose Dulbecco’s modified Eagle’s medium supplemented with 1% penicillin and streptomycin (antibiotics) and 10% fetal bovine serum and grown at 37 °C in a humidified atmosphere containing 5% CO2.
One day before the experiment, an aliquot of 100 μl of the cells at 50,000 cells per ml was seeded into each well of the cell-treated 96-well plates used in the experiment (that is, 5,000 cells per well). […] After the incubation period, we performed the 3-(4,5-dimethylthiazol-2-yl)-2,5-diphenyltetrazolium bromide tetrazolium reduction assay (MTT assay)[53]. The MTT reagent was dissolved at 0.5 mg ml^−1 in medium without phenol red and was used to replace cell culture supernatants containing the peptides (100 μl per well), and the samples were incubated for 4 h at 37 °C in a humidified atmosphere containing 5% CO2 yielding the insoluble formazan salt. The resulting salts were then resuspended in hydrochloric acid (0.04 mol l^−1) in anhydrous isopropanol and quantified by spectrophotometric measurements of absorbance at 570 nm. All assays were done as three biological replicates.
Unless otherwise stated, all assays were performed in three independent biological replicates as indicated in each figure legend and Methods sections. The cytotoxic activities values were estimated using non-linear regression based on the range of concentrations screened and were shown as the values that cause lysis of 50% of the cells in the experiment. Two technical replicates were performed in the cytotoxicity assays within each of the three biological replicates.

A. baumannii ATCC 19606 = assay: Neutropenic thigh infection mouse model; format: in vivo; settings: neutropenic CD-1 mice
Procedure: Six-week-old female CD-1 mice from Charles River (stock number 18679700-022) were rendered neutropenic by two doses of cyclophosphamide (150 mg kg^−1) applied intraperitoneally with an interval of 72 h. One day after the last dose of cyclophosphamide, the mice were injected intramuscularly in their right thigh with a bacterial load of 10^6 c.f.u. ml^−1 of A. baumannii ATCC 19606 cells. The bacteria had been grown in LB broth, washed twice with PBS (pH 7.4), and resuspended to the desired concentration. Two hours after bacterial injection, peptides resuspended in water were administered intraperitoneally, and the untreated mice were inoculated with the same volume of deionized water. Before each injection, mice were anaesthetized with isoflurane and monitored for respiratory rate and pedal reflexes. Next, we monitored the establishment of the infection and euthanized the mice. The infected area was excised 2 days and 4 days post infection, homogenized using a bead beater for 20 min (25 Hz), and then serially diluted tenfold for quantification of colony-forming units in MacConkey agar plates. The experiments were performed with six mice per group. All experiments were performed blindly, and no animal subjects were excluded from the analysis. The thigh infection mouse model was approved by the University Laboratory Animal Resources from the University of Pennsylvania (protocol 807055). Statistical significance was determined using one-way ANOVA followed by Dunnett’s test in log10-transformed data to mitigate the effect of outliers; P values are presented for each group, with all groups being compared to the untreated control group.

Compound: CC[C@H](C)[C@H](NC(=O)[C@H](CC(N)=O)NC(=O)[C@H](CCCCN)NC(=O)[C@H](CCCNC(=N)N)NC(=O)[C@H](Cc1ccccc1)NC(=O)[C@@H](NC(=O)[C@H](CC(C)C)NC(=O)[C@H](CCCNC(=N)N)NC(=O)[C@H](CCCNC(=N)N)NC(=O)CNC(=O)[C@H](CCCNC(=N)N)NC(=O)[C@H](C)NC(=O)[C@H](CCCNC(=N)N)NC(=O)[C@@H](NC(=O)[C@H](CC(C)C)NC(=O)[C@H](CO)NC(=O)[C@H](Cc1ccc(O)cc1)NC(=O)[C@@H](NC(=O)[C@H](CCCNC(=N)N)NC(=O)[C@H](CS)NC(=O)[C@H](Cc1ccc(O)cc1)NC(=O)[C@@H](N)CC(C)C)[C@@H](C)CC)C(C)C)[C@@H](C)O)C(=O)N[C@@H](CO)C(=O)N[C@@H](CCCCN)C(=O)O [Hydrodamin-1]
- Active or Inactive ([1]; Supplementary Dataset 2, against the 11 pathogens tested): Active
- MIC (lowest MIC value in the antimicrobial activity assays) ([1]; Supplementary Table 17, lowest MIC among the strains tested): 4 µM (≈ 11.9 µg/mL)
- Minimal inhibitory concentration, E. coli AIC221 (E. coli AIC221): 16 µM (≈ 47.5 µg/mL)
- CC50 (HEK293T cells): > 128 µM
- bacterial count, thigh infection (Panel 6d) (A. baumannii ATCC 19606; A. baumannii ATCC 19606, day 2, replicate 1): 2.0e+008
- bacterial count, thigh infection (Panel 6d) (A. baumannii ATCC 19606; A. baumannii ATCC 19606, day 2, replicate 2): 4.0e+009
- bacterial count, thigh infection (Panel 6d) (A. baumannii ATCC 19606; A. baumannii ATCC 19606, day 2, replicate 3): 1.0e+010
- bacterial count, thigh infection (Panel 6d) (A. baumannii ATCC 19606; A. baumannii ATCC 19606, day 2, replicate 4): 1.4e+010
- bacterial count, thigh infection (Panel 6d) (A. baumannii ATCC 19606; A. baumannii ATCC 19606, day 2, replicate 5): 2.0e+008
- bacterial count, thigh infection (Panel 6d) (A. baumannii ATCC 19606; A. baumannii ATCC 19606, day 2, replicate 6): 4.0e+008
- bacterial count, thigh infection (Panel 6d) (A. baumannii ATCC 19606; A. baumannii ATCC 19606, day 4, replicate 1): 1.2e+007
- bacterial count, thigh infection (Panel 6d) (A. baumannii ATCC 19606; A. baumannii ATCC 19606, day 4, replicate 2): 6000000
- bacterial count, thigh infection (Panel 6d) (A. baumannii ATCC 19606; A. baumannii ATCC 19606, day 4, replicate 3): 6.0e+007
- bacterial count, thigh infection (Panel 6d) (A. baumannii ATCC 19606; A. baumannii ATCC 19606, day 4, replicate 4): 8.0e+007
- bacterial count, thigh infection (Panel 6d) (A. baumannii ATCC 19606; A. baumannii ATCC 19606, day 4, replicate 5): 6000000
- bacterial count, thigh infection (Panel 6d) (A. baumannii ATCC 19606; A. baumannii ATCC 19606, day 4, replicate 6): 8000000

≈ marks a conversion by molar mass, not a printed value.
